Laboratory results reported in paper PMC7723054.
This is one part of the list.

T1: LIN28A (human?, UniProt Q9H9Z2 1-209)
T1 sequence: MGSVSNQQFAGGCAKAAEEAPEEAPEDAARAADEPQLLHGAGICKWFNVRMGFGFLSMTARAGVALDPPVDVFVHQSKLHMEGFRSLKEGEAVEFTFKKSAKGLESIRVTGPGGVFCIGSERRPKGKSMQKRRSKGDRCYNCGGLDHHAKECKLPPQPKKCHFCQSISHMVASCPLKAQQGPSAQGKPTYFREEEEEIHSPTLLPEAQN

T2: CIRBP (Homo sapiens, UniProt Q14011 1-172)
T2 sequence: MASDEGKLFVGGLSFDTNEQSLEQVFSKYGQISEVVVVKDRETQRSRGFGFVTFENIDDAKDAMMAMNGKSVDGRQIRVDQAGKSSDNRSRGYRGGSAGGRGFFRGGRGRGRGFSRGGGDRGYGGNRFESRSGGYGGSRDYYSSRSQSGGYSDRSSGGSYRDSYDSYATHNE

T3: DHX36 (Homo sapiens, UniProt Q9H2U1 1-1008)
T3 sequence: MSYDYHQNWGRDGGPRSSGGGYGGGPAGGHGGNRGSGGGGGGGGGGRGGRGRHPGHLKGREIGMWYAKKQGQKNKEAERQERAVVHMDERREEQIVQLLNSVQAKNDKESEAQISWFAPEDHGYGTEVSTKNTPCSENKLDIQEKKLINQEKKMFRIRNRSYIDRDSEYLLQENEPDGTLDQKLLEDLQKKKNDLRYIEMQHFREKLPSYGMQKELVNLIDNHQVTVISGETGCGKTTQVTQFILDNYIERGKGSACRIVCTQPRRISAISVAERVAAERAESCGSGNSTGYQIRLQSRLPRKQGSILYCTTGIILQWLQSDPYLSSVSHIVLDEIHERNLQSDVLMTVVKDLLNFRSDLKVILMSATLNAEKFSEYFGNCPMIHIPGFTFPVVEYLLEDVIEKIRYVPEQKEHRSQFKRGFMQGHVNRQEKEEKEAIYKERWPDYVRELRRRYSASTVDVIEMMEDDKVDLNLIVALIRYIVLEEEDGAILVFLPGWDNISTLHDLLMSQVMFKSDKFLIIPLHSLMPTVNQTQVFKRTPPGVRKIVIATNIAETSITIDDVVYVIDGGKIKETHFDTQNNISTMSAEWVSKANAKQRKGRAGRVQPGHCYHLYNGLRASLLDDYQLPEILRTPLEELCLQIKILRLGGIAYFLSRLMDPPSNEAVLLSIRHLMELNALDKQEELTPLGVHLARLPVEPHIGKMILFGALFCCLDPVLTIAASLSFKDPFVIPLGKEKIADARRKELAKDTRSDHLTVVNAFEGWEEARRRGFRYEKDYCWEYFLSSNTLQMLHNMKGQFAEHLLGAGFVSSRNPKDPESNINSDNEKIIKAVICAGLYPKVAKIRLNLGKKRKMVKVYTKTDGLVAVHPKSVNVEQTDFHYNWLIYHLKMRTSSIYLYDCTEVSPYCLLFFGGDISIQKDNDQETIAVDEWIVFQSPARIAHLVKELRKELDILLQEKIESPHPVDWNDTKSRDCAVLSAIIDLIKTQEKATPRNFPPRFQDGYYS

B1: hsa-mir-548a-3 (structured_RNA)
RNA: GGGAAACAGCAAAUCAGGUCUACGCGACGGUGUACGAAGUUUCAGCUUUACCAUUACUUUCAAUGGCAAAGCUGAAGCUUCGUGCAC
B2: hsa-mir-1203 (structured_RNA)
RNA: GGGACAACAUGAAUUGGCCGAGAAGUGAGGUGUACGAAGUUUCAGCGCUCAAGCCACAGCAGGGUGUUUAGCGCUCUUCAGUGGCUCCAGGCUGAAGCUUCGUGCAC
B3: hsa-mir-6500 (structured_RNA)
RNA: GGGAAUCAUGGGAAGUAUUACGUACGACGGUGUACGAAGUUUCAGCGUGUCCUUUCUUCUGAGAGCUGGACACGCUGAAGCUUCGUGCAC
B4: hsa-mir-6085 (structured_RNA)
RNA: GGGAAUAUCAGGUGCUAUAUUGCCGACAGGUGUACGAAGUUUCAGCUACAUAGUUCAUGCUGAGGCCGGGAUUUCAUGCAGAAAACUGGUUGCAAAAGGUGCUGAAGGCUGAAGCUUCGUGCAC
B5: hsa-mir-4437 (structured_RNA)
RNA: GGGAAGAGUUCGUUAGCUUGCCCAAAACGGUGUACGAAGUUUCAGCUCCACAAGGAGGGGAUGACCCUUGUGGGGCUGAAGCUUCGUGCAC
B6: hsa-mir-3918 (structured_RNA)
RNA: GGGAAUGUCCAGCCUGGCGAUCAAUCUGGGUGUACGAAGUUUCAGCGACUGCUCAAGGUCAAAGGGGUCGCUGAAGCUUCGUGCAC
B7: hsa-mir-1295a (structured_RNA)
RNA: GGGACUGUAGGACCAAGCGUUAGUUAAUGGUGUACGAAGUUUCAGCCUAUUCAGAAAUGUGGCCUGUGAUUAGGCUGAAGCUUCGUGCAC
B8: hsa-mir-3199-2 (structured_RNA)
RNA: GGGAAGUUAAGCCUAACACCACAAGACCGGUGUACGAAGUUUCAGCAGUUUCUGGAAUGUCAGAACUUCCAGAAACUGCUGAAGCUUCGUGCAC
B9: hsa-mir-4507 (structured_RNA)
RNA: GGGAAACUGUAAAACAGUGCACCCUGGAGGUGUACGAAGUUUCAGCUGGGUUAAGCCGAGCUGGGCUGAAGCUUCGUGCAC
B10: hsa-mir-5584 (structured_RNA)
RNA: GGGACGAGCCUGUCAAGUAAUGCCAUCUGGUGUACGAAGUUUCAGCACUAGAUUUGAAUCCAGACCUUUAGUGCUGAAGCUUCGUGCAC
B11: hsa-mir-1908 (structured_RNA)
RNA: GGGAACGGAGGCCCAUCAGGAUUUUAUCGGUGUACGAAGUUUCAGCUUGGUCCGUAUGUGUGGUGCCACCGGGCUGAAGCUUCGUGCAC
B12: hsa-mir-498 (structured_RNA)
RNA: GGGAACGCUGCUGGGAACCCAAUACUGUGGUGUACGAAGUUUCAGCUUUCUAUAACUGGAUGAAAGCUGAAGCUUCGUGCAC
B13: hsa-mir-4514 (structured_RNA)
RNA: GGGAAACAGAGUGCGGUCGUAUGGCGAAGGUGUACGAAGUUUCAGCGAAACAUCUUUUACGCUGAAGCUUCGUGCAC
B14: hsa-mir-4676 (structured_RNA)
RNA: GGGAAUUGUUACACGCGACUAGGAGCGCGGUGUACGAAGUUUCAGCAGUGAGUUGAUUACUUCUCACUGCUGAAGCUUCGUGCAC
B15: hsa-mir-512-2_512-1 (structured_RNA)
RNA: GGGACUCUCCCGGUGUCAUACGUUAGCGGGUGUACGAAGUUUCAGCACUUUCUGGUGCCAGAAUGAAAGUGCUGAAGCUUCGUGCAC
B16: hsa-mir-548v (structured_RNA)
RNA: GGGACAUCCGAGACGGGAGUGAAAACUAGGUGUACGAAGUUUCAGCGGUUUUGCCAUCAUGCCAAAAGCUGCUGAAGCUUCGUGCAC
B17: hsa-mir-6784 (structured_RNA)
RNA: GGGACGAGUUAAGACCAGCCGAUGCAAAGGUGUACGAAGUUUCAGCAGGGACCCCCGGAGUCUGUCACGGUCUCAGCUGAAGCUUCGUGCAC
B18: hsa-mir-4517 (structured_RNA)
RNA: GGGAAACGUUAAGUGGGAUUCGCUAGUCGGUGUACGAAGUUUCAGCUGAGGAGCUUAGCAAGUAGCUAAGGCCAGAGCUGAAGCUUCGUGCAC
B19: hsa-mir-761 (structured_RNA)
RNA: GGGAAAGCGGGUAGCAUAUAAGCCAACCGGUGUACGAAGUUUCAGCCACAGUUCUGGGCUGAAGCUUCGUGCAC
B20: hsa-mir-6749 (structured_RNA)
RNA: GGGAAAUUAAACUGGCGGUGUACCUGUCGGUGUACGAAGUUUCAGCGGAGCUCUGUCCUGUCUCACUCAUUGCUCCGCUGAAGCUUCGUGCAC
B21: hsa-mir-4770 (structured_RNA)
RNA: GGGAACUAGUCGGGACACCGAUAAUAACGGUGUACGAAGUUUCAGCCUAUCCUUCCCUUGGAAAAUGAUCUGAGGCUGAAGCUUCGUGCAC
B22: hsa-mir-5572 (structured_RNA)
RNA: GGGAACCUCACGAUGCACUUCGGUAGGAGGUGUACGAAGUUUCAGCCAGCCUGGGGCAUCGGUUGGCUGAAGCUUCGUGCAC
B23: hsa-mir-2681 (structured_RNA)
RNA: GGGAAUAGGCCCGCAACUGGAAUACUAUGGUGUACGAAGUUUCAGCGAGACUGCCCAAAGACUCUUCAGUAUCGCUGAAGCUUCGUGCAC
B24: hsa-mir-217 (structured_RNA)
RNA: GGGAAAUUGUGAGGUAGAAUUGCGCAACGGUGUACGAAGUUUCAGCGGAUAAGAAUCAGUCACGCUGAAGCUUCGUGCAC
B25: hsa-mir-1271 (structured_RNA)
RNA: GGGAAGUAGUCCAUCCGAGUACCCAGUAGGUGUACGAAGUUUCAGCCACUCAGUAAAUAUUUGUUGAGUGGCUGAAGCUUCGUGCAC
B26: PARIS_ID16 (structured_RNA)
RNA: GGGAGUUGUGAAAGGUUCGCCUGUCACGGGUGUACGAAGUUUCAGCUCCUACUGGUGGUCUGUAAGAUGAGUUAGGGGCUGAAGCUUCGUGCAC

Key:
Assay in all cases: FOREST: bead pull-down of RNA structure library v1, barcode microarray; U1A/LIN28A: 20 mM HEPES pH 7.5, 80 mM KCl, 20 mM NaCl, 10% glycerol, 2 mM DTT, 0.1 ug/uL BSA, 4 C; BG4/CIRBP/DHX36: 10 mM Tris-HCl pH 7.5, 100 mM KCl (or LiCl),; high values mean tight binding
[1] = molecular target: T1, LIN28A
[2] = molecular target: T2, CIRBP
[3] = molecular target: T3, DHX36

| Binder | binding signal [1] | binding signal [2] | binding signal [3] |
| --- | --- | --- | --- |
| B1 | 0.875 z-score | 1.5 z-score | 0.398 z-score |
| B2 | 0.842 z-score | 1.59 z-score | -0.2 z-score |
| B3 | 0.857 z-score | 1.46 z-score | 1.16 z-score |
| B4 | 0.854 z-score | 1.2 z-score | -0.3 z-score |
| B5 | 0.884 z-score | -1.06 z-score | 0.953 z-score |
| B6 | 0.843 z-score | 0.647 z-score | 2.06 z-score |
| B7 | 0.857 z-score | 0.541 z-score | -0.72 z-score |
| B8 | 0.864 z-score | 0.858 z-score | 0.304 z-score |
| B9 | 0.838 z-score | 0.717 z-score | -1.41 z-score |
| B10 | 0.906 z-score | -0.0998 z-score | 0.725 z-score |
| B11 | 0.892 z-score | -0.533 z-score | -0.405 z-score |
| B12 | 0.859 z-score | -0.759 z-score | 0.289 z-score |
| B13 | 0.875 z-score | 1.14 z-score | -0.592 z-score |
| B14 | 0.86 z-score | 0.0489 z-score | -0.329 z-score |
| B15 | 0.84 z-score | -0.628 z-score | -0.132 z-score |
| B16 | 0.895 z-score | 0.853 z-score | 0.54 z-score |
| B17 | 0.838 z-score | 0.134 z-score | -0.219 z-score |
| B18 | 0.841 z-score | 1.06 z-score | -0.00972 z-score |
| B19 | 0.852 z-score | 0.309 z-score | 0.168 z-score |
| B20 | 0.841 z-score | 1.01 z-score | 0.363 z-score |
| B21 | 0.874 z-score | -0.346 z-score | -0.239 z-score |
| B22 | 0.879 z-score | -2.29 z-score | -0.319 z-score |
| B23 | 0.841 z-score | 0.285 z-score | 0.17 z-score |
| B24 | 0.84 z-score | 1.89 z-score | 1.71 z-score |
| B25 | 0.845 z-score | 1.91 z-score | 0.692 z-score |
| B26 | 0.844 z-score | 0.615 z-score | 0.136 z-score |
